Reference: publication PMC8470279, “Biosynthesis of the Novel Endogenous 15-Lipoxygenase Metabolites N-13-Hydroxy-octodecadienoyl-ethanolamine and 13-Hydroxy-octodecadienoyl-glycerol by Human Neutrophils and Eosinophils” (Cells, 2021)

Assays:
[1] = system: human neutrophils; experiment: Biosynthesis of 15-LO metabolites by human neutrophils; details: MAFP 5 min, then 3 µM 1-LG 5 min
Protocol: (§1) For tissues samples, ~10 mg of tissue was put in 500 µL of Tris Buffer, crushed with a pestle, mixed with 500 µL of cold (−20 °C) MeOH containing the internal standards, centrifuged at 10,000× g and the supernatant collected. All Samples were processed by adjusting the final volume to 1 mL (incubation buffer-MeOH mixture, 1/1, v/v plus the internal standards). Samples (1 mL) were acidified with 0.575% of acetic acid and mixed with 1 mL CHCl3. Samples were then vortexed for 1 min, then centrifuged at 3000× g for 5 min. […] 15-LO metabolites were quantified using calibration curves, as described before.
(§2) Neutrophils and eosinophils were isolated from the peripheral blood of healthy volunteers as described before. […] Purity and viability were >95% and were assessed by Diff-Quick coloration and Trypan blue exclusion, respectively.
(§3) Prewarmed (37 °C) suspensions of human neutrophils (5 × 10^6 cells/mL) or eosinophils (10^6 cells/mL) in HBSS containing 1.6 mM CaCl2 were incubated with 1 µM MAFP for 5 min before the addition of LA, 1-LG, or LEA for different times or concentrations (see legends of Figures 3–8). […] Lipids were extracted and quantified by LC-MS/MS as described above.

[2] = system: human eosinophils; experiment: Biosynthesis of 15-LO metabolites by human eosinophils; details: 1 µM MAFP 5 min, then 3 µM 1-LG 5 min
Protocol: as §1, §2, §3

## Methyl-arachidonoyl-fluorophosphonate
[1]
  Fold less 13-HODE biosynthesized by 1-LG-treated neutrophils: 65 times
  Fold more 13-HODE-G biosynthesized by 1-LG-treated neutrophils: 20 times
[2]
  Enhancement of 1-LG-induced 13-HODE-G biosynthesis: tenfold
